The entries are a selection whose mix differs from that of the whole data set. Some of these compounds have results that are not shown, active ones among them. Activity calls are given as the source filed them.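 How the source made its calls: active means fluorescence beyond the plate control mean plus 3 SD, with a fluorescence-to-maximum score over 2 (cut at about 25 in these data); inactive means the rest.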

The source of these data is PubChem BioAssay AID1483 (NMMLSC, 2009).

This test is described as follows: compound autofluorescence in ABCB1-expressing CCRF-Adr cells, confirmation, artefact control for ABC transporter inhibitor project, cell-based, 488/530 nm, flow cytometry (AID 1483). Conditions: compound autofluorescence 488/530 nm, at 6.6 µM, hits give high values. An outline of the steps: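 material = unlabeled drug-resistant CCRF-Adr cells | input = 3 million cells per mL, final in well | probe or stimulus = JC-1 substrate omitted | schedule = 10 min rotation at 25 °C | signal = flow cytometric MFI, 530 ± 20 nm | control set = DMSO-treated cell wells as background reference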
For orientation: A flow cytometer gives signals particle by particle.

Consider `CN(C)c1cccc(C(=O)NCC2(N(C)C)CCCCC2)c1`, for which the fluorescence is inactive: -2.04.
